Laboratory results as given in PMC10848157, “Assessing NH300094, a novel dopamine and serotonin receptor modulator with cognitive enhancement property for treating schizophrenia” (Frontiers in Pharmacology, 2024).

Columns and labels:
male ICR mice = conditions: p.o.
in vivo = conditions: male, ICR, mouse, po

Q: What does the source list for `Cc1nc2n(c(=O)c1CCN1CCC(c3noc4cc(F)ccc34)CC1)CCCC2` [Risperidone, risperidone, reference compound]?
A: minimal dose that induced catalepsy (male ICR mice): 1 mg/kg; ED50 (in vivo): 1.35 mg/kg
